Experimental data taken from PubChem BioAssay AID1029 (Sanford-Burnham Center for Chemical Genomics, 2008).
The list shows a part of the results, in another mix than the full data. Active and inactive are the calls of the source.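 How the source made its calls: active means inhibition above the mean of the plate negative controls plus 5 SD (cut at about 13% in these data); inactive means the rest.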

Experiment: inhibitors of macrophage phagocytosis, primary screen, imaging, J774A.1 cells, IgG beads (AID 1029);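 further: phagocytic index as fraction of beads internalized from green versus red external bead signal; plate controls were DMSO negative control for no effect and cytochalasin-D positive control for full effect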
Details: J774A.1 macrophage IgG-bead phagocytosis, at 5 µM, active compounds read high

Structure (SMILES)	inhibition
COc1ccc(NC2CCN(CCc3ccccc3)CC2)c(OC)c1	inactive: -4.3%
O=C(NCC1(N2CCOCC2)CCCCC1)c1cc2ccccc2o1	inactive: 2.1%
O=C(OC1CN2CCC1CC2)C1c2ccccc2Oc2ccccc21 (stereo not given)	inactive: -0.3%
O=C(NCC1(N2CCOCC2)CCCCC1)c1cc(=O)[nH]c2ccccc12	inactive: 0.9%
CN1CCN(CCOC(=O)C(O)(c2ccccc2)c2ccccc2)CC1	inactive: -4.75%
c1ccc(CN2CCC(Nc3ccccc3)CC2)cc1	inactive: -0.2%
N/C(=N\O)c1c(N)no[n+]1[O-]	inactive: 0.7%
O=C(OC1CN2CCC1CC2)C1c2ccccc2C=Cc2ccccc21 (stereo not given)	inactive: -1.64%
CCOc1ncccc1C(=O)NCC1(N2CCOCC2)CCCCC1	inactive: 0.7%
CCN1CCC(Nc2cccc(F)c2)CC1	inactive: -3.74%
